Among the data in patent US7173005 (dated 2007) are IC50 values, retold here.

The target in this test is human IGF-1 receptor (IGF-1R) (human, UniProt P08069). The experiment in a line: competition, TR-FRET vs b-20E2.

The term IC50 denotes the concentration needed to halve the response being measured. Higher therefore signals weaker potency. GGTVWPGYEWLRNA [E8 (D120)] returned an IC50 of 175 nM.
